From patent US4808409A, “Low cariogenic sweetening agents” (Board of Trustees, University of Illinois, priority 1984, dated 1989)

What was measured:
[1] = test system: human taste panel; assay: Human taste panel magnitude estimation of sweetness intensity and pleasantness; details: for Sweetness relative to sucrose, molar basis: vs 0.27 molar sucrose
Excerpt: Solutions were presented to the subjects in a randomized fashion and were sampled in duplicate. After tasting, each solution was expectorated, and the mouth was washed with distilled water.

[2] = test system: S. mutans; assay: Cariogenicity: acid production by S. mutans from sweetener; type: cell-based
Method: In a first test, the ability of microbes to utilize this sweetener source as a nutrient and convert it to acidic by-products was determined.

[3] = test system: male Swiss-Webster mice; details: mouse, in vivo, po
Method: Compounds were suspended in a minimum volume of 1% sodium carboxymethylcellulose, and were administered by oral intubation at the doses indicated in Table II.
^a Male SwissWebster mice (9 or 10 animals per dose).
^d Mortality = number of mice dying within 14 days/number of starting
^e Mortality = number of mice dying within 24 hours/number of startin

Compound	Sweetness intensity relative to the isolated natural product ([1]; synthetic racemic mixture vs natural hernandulcin)	Rate of acid production relative to sucrose, weight basis [2]	Sweetness relative to sucrose, molar basis ([1]; natural hernandulcin)	Sweetness relative to sucrose, molar basis ([1]; natural hernandulcin, listed as hernandulcin)	Sweetness relative to sucrose, weight basis ([1]; natural hernandulcin, weight basis, vs 0.27 M sucrose)	Estimated LD50 [3] [g/kg]	Mortality at 1.0 g/kg [3]	Mortality at 2.0 g/kg (14 days) [3]
CC(C)=CCC[C@@](C)(O)[C@H]1CCC(C)=CC1=O (relative stereo) [synthetic hernandulcin, 6-(1',5'-dimethyl-1'-hydroxyhex-4'-en-1'-yl)-3-methyl-2-cyclohexen-1-one]	about one-half	one hundred-fold less than that attained from sucrose						
CC(C)=CCC[C@@](C)(O)[C@H]1CCC(C)=CC1=O (relative stereo) [Hernandulcin, 6-(1',5'-dimethyl-1'-hydroxyhex-4'-en-1'-yl)-3-methyl-2-cyclohexen-1-one]			~1,000 times	about 1,000 times	about 1,500 times	> 2.0	0/10	0/10
